In patent publication US20240398829A1, “A COBALT-[…] AMINO ACID COMPLEX AND ITS USE FOR TREATING CANCER” (AMELIO BIOTECH CO., LTD., priority 2021, published 2024):

Tests used:
[1] = test system: zebrafish liver; test: Hepatoxicity assay in Tg(fabp10a:EGFP-mCherry) embryos; settings: 100 μM, embryos treated from 3 dpf
[2] = test system: zebrafish embryos

## cobalt-containing glutamic acid (COGA) complex
[1]
  liver toxicity (liver size vs DMSO control): no liver toxicity
[2]; at 0.01×(1 μM), 0.1×(10 μM) and 1×(100 μM), tested range 1-2000 μM
  mortality rate of embryos: lowest
[2]; conclusion
  embryonic toxicity: no hepatoxicity and embryonic toxicity
